Data as given in ChEMBL document CHEMBL3774360, “Potent multitarget FAAH-COX inhibitors: Design and structure-activity relationship studies” (Eur J Med Chem, 2016).

Chains of the proteins cited; added tags and fusions are not shown.
UniProt P97612, whole entry: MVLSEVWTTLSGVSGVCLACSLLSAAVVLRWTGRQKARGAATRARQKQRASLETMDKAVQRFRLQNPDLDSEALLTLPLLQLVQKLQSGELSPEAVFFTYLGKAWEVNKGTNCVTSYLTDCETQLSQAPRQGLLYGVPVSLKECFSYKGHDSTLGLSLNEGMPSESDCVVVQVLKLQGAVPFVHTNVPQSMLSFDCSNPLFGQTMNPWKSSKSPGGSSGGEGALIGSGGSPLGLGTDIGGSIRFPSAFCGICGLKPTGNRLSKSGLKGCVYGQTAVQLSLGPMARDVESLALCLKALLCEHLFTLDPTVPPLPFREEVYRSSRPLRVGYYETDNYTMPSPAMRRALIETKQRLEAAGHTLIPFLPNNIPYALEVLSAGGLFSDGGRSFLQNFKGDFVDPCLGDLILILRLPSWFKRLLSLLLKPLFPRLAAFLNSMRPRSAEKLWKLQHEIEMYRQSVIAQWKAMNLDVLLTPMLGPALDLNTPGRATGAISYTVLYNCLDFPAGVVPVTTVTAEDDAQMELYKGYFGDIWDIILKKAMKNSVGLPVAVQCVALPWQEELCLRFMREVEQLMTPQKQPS

Target: Fatty-acid amide hydrolase 1 (Rattus norvegicus, UniProt P97612)
Test: Inhibition of FAAH in Sprague-Dawley rat brain homogenates preincubated for 10 mins followed by addition of substrate measured after 30 mins by liquid scintillation counting
Format: tissue-based

SMILES	IC50 [nM]
CCCCCCNC(=O)Oc1cccc(-c2ccc([C@@H](C)C(=O)O)cc2F)c1	9.9
CCCCCCNC(=O)Oc1cccc(-c2ccc([C@H](C)C(=O)O)cc2F)c1	9.4
